Earlier results, collected in PMC8198792, “Prediction of Anticancer Peptides with High Efficacy and Low Toxicity by Hybrid Model Based on 3D Structure of Peptides” (International Journal of Molecular Sciences, 2021).

Test system: cancer cell lines
Set-up: method as in 6 sources, ref CancerPPD [45] and SATPdb ||| ref CancerPPD/SATPdb ||| ref CancerPPD, SATPdb, Swissprot (PDB) ||| ref CancerPPD/SATPdb/Swissprot(PDB) ||| ref CancerPPD / SATPdb ||| ...
Conditions: ACPs dataset D1, label 1 = ACP, 0 = non-ACP (non-anticancer AMPs from SATPdb); ref CancerPPD/SATPdb; cited from earlier work

Row | Substance | Activity
1 | RRCICTTRTCRFPYRRLGTCIFQNRVYTFCC [satpdb12581] | 0
2 | TKYYGNGVYCNSKKCWVDWGQASGCIGQTVVGGWLGGAIPGKC [satpdb13182] | 0
3 | WKSDVRRWRSRY [satpdb13059] | 0
4 | GLFSILKGVGKIALKGLAKNMGKMGLDLVSCKISKEC [satpdb12283] | 0
5 | FFPMLAGVAARVVPKVICLITKKC [satpdb13071] | 0
6 | FLPIASLLGKYL [satpdb11889] | 0
7 | LSKKLICYCRIRGCKRRERVFGTCRNLFLTFVFCCS [satpdb11890] | 0
8 | FLPLVRVAAKLIPSVVCAISKRC [satpdb12257] | 0
9 | GSKKPVPIIYCNRRKCQRM [satpdb11407] | 0
10 | SAIACGESCVYIPCFIPGCSCRNRVCYLN [satpdb12767] | 0
11 | GNGVVLTLTHECNLATWTKKLKCC [satpdb12592] | 0
12 | EGGGPQWAVGHFM [satpdb11884] | 0
13 | GILTDTLKGAAKNVAGVLLDKLKCKITGGC [satpdb12452] | 0
14 | RPWAGNGSVHRYTVLSPRLKTQ [satpdb12613] | 0
15 | HPHVCTSYYCSKFCGTAGCTRYGCRNLHRGKLCFCLHCSR [satpdb13256] | 0
16 | TNWKKIGKCYAGTLGSAVLGFGAMGPVGYWAGAGVGYASFC [satpdb12382] | 0
17 | TTHSGKYYGNGVYCTKNKCTVDWAKATTCIAGMSIGGFLGGAIPGKC [satpdb13316] | 0
18 | KYYGNGLSCSKKGCTVNWGQAFSCGVNRVATAGHHKC [satpdb11923] | 0
19 | RVCYAIPLPIC [satpdb11870] | 0
20 | SAVGRHGRRFGLRKHRKH [satpdb12440] | 0

Same assay, conditions: ACPs dataset D1; 1 = ACP (positive), 0 = non-ACP (negative); label taken from databases; ref CancerPPD [45] and SATPdb; cited from earlier work

Row | Substance | Activity
21 | SCTTCVCTCSCCTT [satpdb10987] | 0
22 | IMRIKQGQIGQMTI [satpdb17970] | 1
23 | FCNINNVCNFASRNDYSYW [satpdb17832] | 1
24 | SKRKSRPVSVKTFEDIPLEEP [satpdb21003] | 1
25 | GLFSVVTGVLKAVGKNVAKNVGGSLLEQLKCKISGGC [satpdb11247] | 0
26 | YCNINEVCHYARRNDKSYWL [satpdb18127] | 1
27 | SPWDICSVTCGGGVQKRSR [satpdb14271] | 1
28 | VTCFCRRRGCASRERHIGYCRFGNTIYRLCCRR [satpdb10365] | 0
29 | VNWKKILGKIIKVVK [compound 3501] | 1
30 | SEWSDCSVTCGKGMRTRQR [satpdb28027] | 1
31 | SPWSSASVTAGDGVDITRIR [satpdb10113] | 1
32 | KTCMTKKEGWGRCLIDTTCAHSCRKYGYMGGKCQGITRRCYCLLNC [satpdb10109] | 0
33 | RRPAAAGKRRREKQRPSDKPRR [satpdb16692] | 1
34 | HGVSGHGQHGVHG [compound 4419] | 1
35 | RQVFQVAYIIIKA [satpdb27572] | 1
36 | RRPKGRGKRAAAKQRPSDKPRR [satpdb22628] | 1
37 | SQWSPCSRTCGGGVSFRER [satpdb27624] | 1
38 | SIGAKILGGVKTFFKGALKELASTYLQ [compound 1652] | 1
39 | TGALVEEEDPF [satpdb12029] | 1
40 | KAAKKAAKAAKKAAKAAKKAA [compound 3288] | 1
41 | HNRTPENFPCKNL [satpdb14648] | 1
42 | SVSGGGHHHHHHGGG [satpdb10012] | 1

Row | Substance | Activity
43 | SPWSPCSTSCGLGVSTRI [satpdb16807] | 1
44 | RTCRCRLGRCSRRESYSGSCNINGRIYSLCCR [satpdb11346] | 0
45 | GIPCGESCVFIPCITAAIGCSCKSKVCYRN [compound 4383] | 1
46 | WKSESVCTPGCVTGVLQTCFLQTITCNCHISK [satpdb10992] | 0
47 | IATQCRIRGGFCRVGSCRFPHIAIGKCATFISCCGRAY [satpdb10589] | 0
48 | ASWSACSVSCGGGARQRTR [satpdb17296] | 1
49 | WTRCSSSCGRGVSVRSR [satpdb17430] | 1
50 | RWKVFKKIEKVGRNIRDGVIKAAPAIEVLGQAKAL [satpdb11143] | 0
51 | EKSSRPEFYKVILGAHEEYIRG [satpdb16174] | 1
52 | VGALAVVVWLYLWLW [satpdb10590] | 0
53 | FSTKTRNWFSEHFKKVKEKLKDTFA [satpdb11367] | 0
54 | YLKNYRIATFKNWPF [satpdb18163] | 1
55 | FVQWFSKFLGRIL [compound 4363] | 1
56 | YPYDVPDYASL [satpdb18483] | 1
57 | SIRDKIKTIAIDLAKSAGTGVLKTLICKLDKSC [satpdb11261] | 0
58 | FLPVLAGLTPSIVPKLVCLLTKKC [satpdb10416] | 0
59 | TAGIKLTVPIEKFPVTTQTFWG [compound 3368] | 1
60 | SPSTHPNEGLEENYCRNPDN [satpdb18195] | 1
61 | GLLQTIKEKLESLESLAKGIVSGIQA [compound 4392] | 1
62 | SPNITVTLKKFPL [satpdb16044] | 1
63 | RTCESQSHKFKGPCFSDSNCATVCRTENFPRGQCNQHHVERKCYCERSC [satpdb11053] | 0
64 | SPWSQCSVRCGRGQRSRQVR [satpdb28887] | 1

Same assay, conditions: ACPs dataset D2 (supplement ACPs(seguence).xlsx, sheet D2); dataset label 1/0 (ACP / non-ACP); entries identified by Swissprot(PDB ID); ref CancerPPD/SATPdb/Swissprot(PDB); cited from earlier work

Row | Substance | Activity
65 | DECANAAAQCSITLCNLYCGPLIEICELTVMQNCEPPFS [1ERY NMR - A 1-39] | 0
66 | AHMDCTEFNPLCRCNKMLGDLICAVIGDAKEEHRNMCALCCEHPGGFEYSNGPCE [1IW4 NMR - A 1-55] | 0
67 | MVEPLLCGIVLGLVPVTIAGLFVTAYLQYLRGDLATY [1Q90 X-ray 3.10,G,1-37] | 0
68 | TQGNTCGGETCSAAQVCLKGKCVCNEVHCRIRCKYGLKKDENGCEYPCSCAKASQ [1BX7 X-ray 1.20 A 1-55] | 0
69 | TIVIDHEECIGCESCVELCPEVFAMIDGEEKAMVTAPDSTAECAQDAIDACPVEAISKE [1DWL NMR - A 1-59] | 0
70 | YVSCLFRGARCRVYSGRSCCFGYYCRRDFPGSIFGTCSRRNF [2DCV NMR - A 1-42] | 0
71 | SEKPQQELEECQNVCRMKRWSTEMVHRCEKKCEEKFERQQR [2LQX NMR - A 1-41] | 0
72 | MAKGKRTFQPNNRRRARVHGFRLRMRTRAGRAIVANRRSKGRRALTA | 0
73 | MKKYVCTVCGYEYDPAEGDPDNGVKPGTSFDDLPADWVCPVCGAPKSEFEAA [1RB9 X-ray 0.92 A 1-52] | 0

Same assay, conditions: ACPs dataset D3 (sheet "D3"); label 1 = ACP, 0 = non-ACP; ref CancerPPD/SATPdb; cited from earlier work

Row | Substance | Activity
74 | RWCFRVCYRGICYRKCR [satpdb12755] | 0
75 | VKKFPWWWPFLKK [satpdb14862] | 0
76 | VOLfPVOLfP [satpdb14186] | 0
77 | ILPILGNLLNSLL [satpdb13527] | 0
78 | fPVOLOfPOVOL [satpdb13884] | 0
79 | FKRLEKLFSKIWNWK [satpdb14858] | 0
80 | INWSSIFESVKNLV [satpdb12662] | 0
81 | LKKLLKKLLKW [satpdb14863] | 0

Same assay, conditions: ACPs dataset D3 (supplement sheet "D3"); 1 = ACP, 0 = non-ACP; ref CancerPPD [45] and SATPdb; cited from earlier work

Row | Substance | Activity
82 | RRRRRRRRGGC-Pem [compound 3343] | 1
83 | KWKLFKKIGIGAFLHSAKKF [compound 1203] | 1
84 | VNSKKISGKSIKVSK [satpdb10664] | 0
85 | KKKFPWWWPFKKKKKKFPWWWPFKKKK [compound 1911] | 1
86 | VAKALAKALLKALKAL [compound 1916] | 1
87 | KWKLFKKILKFLHLAKKF [compound 1131] | 1
88 | rrrrrrrrGNLWAAQRYGRELRRMSDEFVDSFKK [compound 2913] | 1
89 | GKWMTLLKHILK [compound 3660] | 1
90 | KLlLKlLkkLLKlLKKK [compound 1441] | 1
91 | KWKSFLkTFkSLKkTVLHTLLkAISS [compound 3765] | 1
92 | KWKSFlKTFKSlKKTVlHTllKAISS [compound 3763] | 1
93 | TRSSRAGLQWPVGRVHRLLRKGGC [compound 2219] | 1

Same assay, conditions: ACPs dataset sheet D2; 1 = ACP (CancerPPD/SATPdb ID), 0 = non-ACP (Swissprot/PDB ID); ref CancerPPD, SATPdb, Swissprot (PDB); cited from earlier work

Row | Substance | Activity
94 | GLFGVLAKVAAHVVPAIAEHF [2MMJ NMR - A 1-21] | 0
95 | FLSLIPHAIN AVSALANHG [2JQ1 NMR - A 1-19] | 0
96 | MEEKPKGALAVILVLTLTILVFWLGVYAVFFARG [1XME X-ray 2.30 ,C，1-34] | 0
97 | SSGWVCTLTI ECGTVICAC [1AJ1-A(1-19)] | 0
98 | MLGNMNVFMAVLGIILFSGFLAAYFSHKWDD [5OQT X-ray 2.86 C 1-31] | 0
99 | SLLSLIRKLIT [2N9A NMR - A 1-11] | 0
100 | MAPRGFSCLLLLTSEIDLPVKRRA [1Y32 NMR - A 1-24] | 0
101 | MNPNCARCGKIVYPTEKVNCLDKFWHKACF [1ZFO NMR - A 1-30] | 0
102 | RSCPRIWMECTRDSDCMAKCICVAGHCG [1MCT X-ray 1.60 I，1-28] | 0
103 | RVCPRILMECKKDSDCLAECVCLEHGYCG [1LU0 X-ray 1.03 A/B 1-29] | 0
